Values of other authors in patent publication US9393219B2, “Monophenols and benzenediols sensitization of immune system against haptenized melanoma antigens” (ACADEMISCH ZIEKENHUIS BIJ DE UNIVERSITEIT VAN AMSTERDAM, priority 2005, dated 2016).

Tested on: metastatic melanoma
Settings: cited from earlier work

In the case of “IL-2: high-dose interleukin (IL)-2, immunotherapy for metastatic melanoma”, the cure rate (high-dose IL-2) is given as “about 5%” and the response rate (immunotherapy) is given as “approximately 15%”.
